Data from publication PMC10215199 (Antioxidants, 2023).

Amino acid sequences for entries named in this document (tags omitted).
UniProt P27338, whole entry, looked up: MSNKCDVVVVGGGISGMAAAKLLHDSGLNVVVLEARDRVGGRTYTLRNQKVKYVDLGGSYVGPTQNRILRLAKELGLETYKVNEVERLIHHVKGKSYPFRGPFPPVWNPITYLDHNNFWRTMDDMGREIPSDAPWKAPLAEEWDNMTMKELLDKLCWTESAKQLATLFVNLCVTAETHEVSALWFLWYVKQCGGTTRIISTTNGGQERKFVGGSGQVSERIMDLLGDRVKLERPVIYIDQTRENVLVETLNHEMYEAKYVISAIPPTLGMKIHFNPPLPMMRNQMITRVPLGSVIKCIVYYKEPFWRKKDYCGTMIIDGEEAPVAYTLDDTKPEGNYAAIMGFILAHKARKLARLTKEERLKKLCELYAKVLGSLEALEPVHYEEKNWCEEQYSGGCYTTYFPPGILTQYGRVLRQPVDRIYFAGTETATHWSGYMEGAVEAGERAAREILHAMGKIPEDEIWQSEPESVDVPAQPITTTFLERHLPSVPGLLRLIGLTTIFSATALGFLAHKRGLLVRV

Target: recombinant human MAO-B (Homo sapiens, UniProt P27338)
Assay: Monoamine oxidase-B inhibition assay (Amplex red fluorescence)
Type: biochemical
Details: calculated from MAO-A and MAO-B IC50 values

COc1cc(/C=C2\Oc3cc(OCCN4CCCC4)ccc3C2=O)cc(OC)c1OC [Compound 3bc]
MAO-B Selectivity Index: > 289
